# Results as given in US5773423A (priority 1994, dated 1998).
# Chains of the proteins cited; added tags and fusions are not shown.
# UniProt P30543, whole entry: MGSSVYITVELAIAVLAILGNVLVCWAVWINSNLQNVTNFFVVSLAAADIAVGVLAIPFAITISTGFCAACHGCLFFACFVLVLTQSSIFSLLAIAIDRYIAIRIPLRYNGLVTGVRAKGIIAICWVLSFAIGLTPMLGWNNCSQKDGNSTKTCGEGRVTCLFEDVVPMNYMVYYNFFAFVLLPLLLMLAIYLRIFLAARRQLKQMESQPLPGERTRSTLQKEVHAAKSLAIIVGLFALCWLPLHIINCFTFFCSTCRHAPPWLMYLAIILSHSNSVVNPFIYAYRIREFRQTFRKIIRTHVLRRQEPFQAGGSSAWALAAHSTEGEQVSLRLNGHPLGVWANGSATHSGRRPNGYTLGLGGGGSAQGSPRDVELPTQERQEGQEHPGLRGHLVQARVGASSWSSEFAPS
# UniProt P25099, whole entry: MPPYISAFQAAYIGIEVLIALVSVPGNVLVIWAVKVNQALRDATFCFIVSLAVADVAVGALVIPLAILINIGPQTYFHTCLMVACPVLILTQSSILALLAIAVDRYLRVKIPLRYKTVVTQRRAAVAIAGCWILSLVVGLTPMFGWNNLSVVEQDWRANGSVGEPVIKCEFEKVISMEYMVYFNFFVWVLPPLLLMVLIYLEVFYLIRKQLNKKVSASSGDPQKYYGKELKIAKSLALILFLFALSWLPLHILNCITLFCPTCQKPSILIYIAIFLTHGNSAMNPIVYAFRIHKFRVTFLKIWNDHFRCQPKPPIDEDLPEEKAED
# Columns and labels:
# [1] = molecular target: T1, A2 receptors from rat striatal membranes (Rattus norvegicus, UniProt P30543); set-up: Rat cerebral cortical and striatal membranes were prepared; from tissue; host or cells: rat striatal membranes; conditions: cited from earlier work
# [2] = molecular target: T2, A1 receptors from rat brain membranes (Rattus norvegicus, UniProt P25099); type: binding
# T2 construct: Rat cerebral cortical and striatal membranes were prepared; from tissue; host or cells: rat brain (cerebral cortical) membranes
# [3] = molecular target: T1, A2 receptors from rat striatal membranes; assay: biochemical
# [4] = molecular target: T2, A1 receptors from rat brain membranes; conditions: Table 2, footnotes d/e: Gallo-Rodriguez 1994 / van Galen 1994; cited from earlier work
smiles,measurement,setting,value
"C[C@H](Cc1ccccc1)Nc1ncnc2c1ncn2[C@@H]1O[C@H](CO)[C@@H](O)[C@H]1O [Compound 2, N^6-[(R)-1-methyl-2-phenylethyl]adenosine]",Ki,[1]; read-out: A2 affinity Ki,124 nM
"C[C@@H](Cc1ccccc1)Nc1ncnc2c1ncn2[C@@H]1O[C@H](CO)[C@@H](O)[C@H]1O (mixture of isomers) [Compound 3, N^6-[(R/S)-1-methyl-2-phenylethyl]adenosine]",Ki,[1]; read-out: A2 affinity Ki,1820 nM
"CCCCn1c(=O)c2c(ncn2[C@@H]2O[C@H](C(=O)NC)[C@@H](O)[C@H]2O)n(CCCC)c1=O [Compound 124, N-methyl 1,3-di-n-butylxanthine-7-β-D-ribofuronamide]",Ki,[2]; read-out: Ki (A1),37300 nM
same,inhibition at 100 µM,[3],19 ± 2%
"CNC(=O)[C@H]1O[C@@H](n2cnc3c(NCc4cccc(I)c4)ncnc32)[C@H](O)[C@@H]1O [Compound 42, N^6-(3-iodobenzyl)adenosine-5'-N-methyluronamide]",Ki,"[2]; rat brain membranes, displacement of [3H]PIA (or [3H]CHA), read-out: A1 affinity Ki",54 ± 5 nM
same,Ki,"[1]; Table 2, footnotes d/e: literature, read-out: Ki (A2)",56 nM
same,Ki,[4],54 nM

# Like-named read-outs stand apart in the source and are kept apart here.
